Measurements reported in patent US6447783.

What was measured:
[1] = target: Fibroblast growth factor receptor 3 (FGFR3), form not stated (as named in the summary) (Mus musculus (Mouse)) (UniProt Q61851); experiment: not stated (told in the summary)
[2] = target: Soluble extracellular domain of murine FGFR2 (IIIc isoform) coupled to human placental alkaline phosphatase (murine; human) (UniProt P21803); experiment: 125I-FGF9 saturation binding to soluble receptor-AP on plates, Scatchard analysis
[3] = target: Soluble extracellular domain of murine FGFR3 (IIIc isoform) coupled to human placental alkaline phosphatase (murine; human) (UniProt Q61851); experiment: as above
[4] = target: Soluble extracellular domain of murine FGFR2 (IIIc isoform) coupled to human placental alkaline phosphatase (murine; human) (UniProt P21803); experiment: 125I-FGF9 saturation binding to soluble receptor-AP on plates, Scatchard analysis, within every single experiment

Kd [1]: 0.25 nM | Kd [2]: 2.38 nM | Kd [3]: 0.78 nM | fold lower affinity compared to FGFR3 [4]: 3 fold
Substance: Recombinant mouse FGF9 (fibroblast growth factor 9) (from UniProt P36364 1-208) (ligand)
